Laboratory results: patent US20250277059A1, “ANTIBODY USED TO TREAT CORONAVIRUS INFECTION” (priority 2022, published 2025)
Where a chain is given by its changes, count along the chain named.

By UniProt entry, the sequences of proteins in these tests, tags left out.
UniProt O15393, whole entry W306A: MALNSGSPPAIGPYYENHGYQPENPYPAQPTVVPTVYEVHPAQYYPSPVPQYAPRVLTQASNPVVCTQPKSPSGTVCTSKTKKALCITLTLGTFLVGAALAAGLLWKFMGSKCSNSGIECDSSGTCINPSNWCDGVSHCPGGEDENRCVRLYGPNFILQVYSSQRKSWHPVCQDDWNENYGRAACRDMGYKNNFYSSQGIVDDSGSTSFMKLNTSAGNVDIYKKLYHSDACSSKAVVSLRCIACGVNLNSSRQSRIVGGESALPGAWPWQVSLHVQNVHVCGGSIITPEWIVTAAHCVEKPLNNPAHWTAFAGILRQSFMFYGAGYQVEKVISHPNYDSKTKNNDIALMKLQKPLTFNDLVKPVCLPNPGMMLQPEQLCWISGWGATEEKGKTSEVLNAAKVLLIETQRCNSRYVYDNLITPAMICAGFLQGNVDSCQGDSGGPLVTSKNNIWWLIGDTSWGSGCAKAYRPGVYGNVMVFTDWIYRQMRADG

Experiments:
[1] = target: T1, TMPRSS2 chimera (human/292 to 309 cat) (human; cat, UniProt O15393 1-492); assay: flow cytometry, COS7 transfectant
[2] = target: T2, W306A variant of human TMPRSS2 (human, UniProt O15393 1-492); assay: flow cytometry, COS7 transfectant
T2 construct: also called human TMPRSS2 W306A

[3] = target: T2, W306A variant of human TMPRSS2; assay: flow cytometry on COS7 cells expressing the variant (FIG. 7C)
[4] = target: T1, TMPRSS2 chimera (human/292 to 309 cat); assay: flow cytometry on COS7 cells expressing the variant (FIG. 7A)
[5] = target: TMPRSS2 chimera (human/316 to 321 hamster) (human; hamster, UniProt O15393 1-492); assay: flow cytometry on COS7 cells expressing the variant (FIG. 7D)

B1: 2114_16 antibody (antibody, V domains shown)
VH: EVQLQQSGPELVKPGASVKISCKASGYTFTDYYMNWVKRRHGKSLEWIGNINPNNGGTSYNQKFKGKATLTVDKSSSTAYMELRSLTSEDSVVYYCAREGDLFPFAYWGQGTLVTVSA
VL: QAVVTQESALTTSPGETVTLTCRSSIGTVTTSNFANWVQEKPDHLFTGLIGASNNRAPGVPARFSGSLIGDKAALTITGAQTEDEAIYFCALWFSNHWVFGGGTKLTVL
notes: also called 2114 antibody
[1]
  binding result: no binding
[2]
  binding result: no binding

B2: 1831_15 antibody (antibody, V domains shown)
VH: QVQLQQPGAELVKPGASVKLSCKASGYSFTTYWMHWVRQRPGQGLEWIGIIHPNSGTTNYNEKFKSKASLTVDKSSSTAYMQLSSLTSEDSAVYYCARLLWDYFDYWGQGTTLTVSS
VL: DIVMSQSPSSLAVSAGEKVTMSCKSSQSLLNSRTRKNFLAWYQQKPGQSPKLLIYWASTRESGVPDRFTGSGSGTDFTLTISSVQAEDLAVYYCKQSYNLYTFGGGTKLEIK
[3]
  binding result: no binding
[4]
  binding result: no binding

B3: 2020_12 antibody (antibody, V domains shown)
VH: QVQLQQPGAELAKPGASVKLSCKASGYTFTSYWMHWVKQRPGQGLEWIGLIPPNSGSSNYNEKFKSKATLTVDKSSRTAYMQLSSLTSEDSAVYYCARWDYGSSYGYFDVWGTGTTVTVSS
VL: DIVLTQSPASLAVSLGQRATISCRASESVSTSGYSYMHWYQQKPGQPPKLLIYLASNLESGVPVRFSGSGSGTDFTLNIHPVEEEDAATYYCQHSRELPPTFGAGTKLELK
[5]
  binding result: no binding

B4: 1864_10 antibody (antibody, V domains shown)
VH: QVQLQQSGPALVKPGASLKISCEASGYTFTYYSINWVKQRPGQGLEWIGWIFPGSGSTYYNEKFKGKATLTIDKSSSTAYMLLSSLTSEDSAVYFCARSDYGSAYGYFDVWGTGTTVTVSS
VL: B3 VL with E27K, V64A, E97D, P100L
[5]
  binding result: no binding
